PMC10200341 (Bioconjugate chemistry, 2022)

Target: A2AR(Nb6E) (Homo sapiens, UniProt P29274)
Assay: cAMP dose-response in HEK cells expressing A2AR
Type: cell-based
Conditions: read-out: EC50 (cAMP), cAMP-responsive luciferase, sigmoidal dose-response, variable slope

## CGS-1(NO2): conjugate of CGS21680 with crosslinking peptide prepared by copper-catalyzed click chemistry (QADQCAAELARQIS; K7A is printed; Cys at position 5 is inferred: the text gives position 5 or 14, and the matched control is named A5; A further change at position 11 cannot be ex)
  EC50: 0.04 to 0.06 µM
